Results on one molecule are retold here after ChEMBL document CHEMBL1240530, “Inhalation by design: novel ultra-long-acting β(2)-adrenoreceptor agonists for inhaled once-daily treatment of asthma and chronic obstructive pulmonary disease that utilize a sulfonamide agonist headgroup” (J Med Chem, 2010).

The species entered for the assay is Canis familiaris.

`COc1ccc(CC(C)NCC(O)c2ccc(O)c(NC=O)c2)cc1` (stereo unspecified) [FORMOTEROL] yielded an ED50 of 0.1 µg.
